Measurements published in ChEMBL document CHEMBL2046398, “Optimization of (2,3-dihydro-1-benzofuran-3-yl)acetic acids: discovery of a non-free fatty acid-like, highly bioavailable G protein-coupled receptor 40/free fatty acid receptor 1 agonist as a glucose-dependent insulinotropic agent” (J Med Chem, 2012).

Columns and labels:
[1] = tested on: Plasma; assay: Metabolic stability in rat plasma assessed as unchanged compound level; format: ADME, cell-free
[2] = tested on: Plasma; assay: Metabolic stability in plasma dog assessed as unchanged compound level; format: ADME, cell-free, Canis lupus familiaris

Stability [1]: Stable
Stability [2]: Stable
SMILES: Cc1cc(OCCCS(C)(=O)=O)cc(C)c1-c1cccc([14CH2]Oc2ccc3c(c2)OC[C@H]3CC(=O)O)c1
